Patent publication US11951108B2, “Combination therapy for treating cancer” (Epizyme, Inc., priority 2016, dated 2024)

Tested on: HCC1419
Experiment: In vitro combination study, breast cancer cell line HCC1419
Conditions: ER/PR −/−, HER2 +, 7 day pre-treatment + 6 day co-treatment

- Synergy or antagonism of second agent with tazemetostat (IC50 shift of second agent): A (Antagonism)
Structure (SMILES): N#Cc1ccc(C(c2ccc(C#N)cc2)n2cncn2)cc1 [Letrozole]
